{"sequences": {"note": "Protein sequences, listed by entry. Tags and fused reporters are not part of them.", "UniProt P14842, whole entry": "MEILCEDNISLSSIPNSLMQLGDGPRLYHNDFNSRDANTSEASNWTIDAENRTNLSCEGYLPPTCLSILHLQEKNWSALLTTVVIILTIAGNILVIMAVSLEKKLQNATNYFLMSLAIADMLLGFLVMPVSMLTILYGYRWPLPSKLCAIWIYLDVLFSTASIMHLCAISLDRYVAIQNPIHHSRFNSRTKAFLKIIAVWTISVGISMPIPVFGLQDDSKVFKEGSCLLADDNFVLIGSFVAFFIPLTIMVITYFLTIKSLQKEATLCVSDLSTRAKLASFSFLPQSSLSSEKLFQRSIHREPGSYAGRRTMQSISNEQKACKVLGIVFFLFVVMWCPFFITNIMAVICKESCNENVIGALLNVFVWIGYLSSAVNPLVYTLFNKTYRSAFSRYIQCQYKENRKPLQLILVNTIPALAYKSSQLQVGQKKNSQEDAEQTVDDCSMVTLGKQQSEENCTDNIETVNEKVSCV"}, "source": "BindingDB's records for PubMed 1501121", "about": "(Sanofi Recherche, 1992)", "target": "5-hydroxytryptamine receptor 2A (Rattus norvegicus, UniProt P14842)", "data": [{"smiles": "Cc1nc2sccn2c(=O)c1CCN1CCC(=C(c2ccc(F)cc2)c2ccc(F)cc2)CC1", "values": [{"measurement": "Ki", "value": 0.0581, "unit": "µM"}]}]}
